Test results reported in patent US11872215B2, “Site-specific antibody-drug glyconjugates and methods” (UNIVERSITY OF GEORGIA RESEARCH FOUNDATION, INC., priority 2014, dated 2024).

Test system: Daudi Burkett lymphoma cells, which express CD22
Experiment: Cytotoxicity assay in Daudi cells (MTT)
Type: cell-based, Human
Conditions: varying concentrations, 48 h
Procedure: Next, the cytotoxic properties of the control and anti-CD22 antibodies were examined. The cell surface receptor CD22 is a clinically validated target for B-cell lymphoma that undergoes constitutive endocytosis, and therefore we thought it would be a suitable target for the development of ADCs. Thus, Daudi Burkett lymphoma cells, which express CD22, were incubated with varying concentrations of the anti-CD22 and control antibody with or without Dox modification. After 48 h, cell viability was measured by the activity of the enzymes that reduce tetrazole (MTT) to formazan.
Human B lymphoblast cell, Daudi (CCL-213, ATCC) were cultured in ATCC-formulated RPMI-1640 medium with L-glutamine (2 mM), sodium bicarbonate (1.5 g L^−1), glucose (4.5 g L^−1), HEPES (10 mM) and sodium pyruvate (1.0 mM). […]
Cytotoxicity of CD22-DOX treatments in Daudi cells was determined by use of the mTT uptake assay. […] The viability was measured by quantifying the cellular ability to reduce the water soluble tetrazolium dye 3-4,5-dimethylthiazole-2,5-diphenyl tetrazolium bromide (MTT) to its insoluble formazan salt as follows. […] The absorbance was measured at 560 nm using a microplate reader (BMG Labtech). Data points were collected in triplicate and expressed as normalized values for untreated control cells (100%).

In the case of DIBO-Doxorubicin conjugate [compound 4], the “cytotoxicity (cell viability by MTT reduction)” value is reported as “only slightly less active than the unmodified drug”.
